Measured values published in patent US7696185B2, “Peptidomimetic inhibitors of PSMA, compounds comprising them, and methods of use” (Cancer Targered Technology LLC, priority 2006, dated 2010).

The chains behind the UniProt entries cited, without tags or fusion partners.
UniProt Q04609, whole entry: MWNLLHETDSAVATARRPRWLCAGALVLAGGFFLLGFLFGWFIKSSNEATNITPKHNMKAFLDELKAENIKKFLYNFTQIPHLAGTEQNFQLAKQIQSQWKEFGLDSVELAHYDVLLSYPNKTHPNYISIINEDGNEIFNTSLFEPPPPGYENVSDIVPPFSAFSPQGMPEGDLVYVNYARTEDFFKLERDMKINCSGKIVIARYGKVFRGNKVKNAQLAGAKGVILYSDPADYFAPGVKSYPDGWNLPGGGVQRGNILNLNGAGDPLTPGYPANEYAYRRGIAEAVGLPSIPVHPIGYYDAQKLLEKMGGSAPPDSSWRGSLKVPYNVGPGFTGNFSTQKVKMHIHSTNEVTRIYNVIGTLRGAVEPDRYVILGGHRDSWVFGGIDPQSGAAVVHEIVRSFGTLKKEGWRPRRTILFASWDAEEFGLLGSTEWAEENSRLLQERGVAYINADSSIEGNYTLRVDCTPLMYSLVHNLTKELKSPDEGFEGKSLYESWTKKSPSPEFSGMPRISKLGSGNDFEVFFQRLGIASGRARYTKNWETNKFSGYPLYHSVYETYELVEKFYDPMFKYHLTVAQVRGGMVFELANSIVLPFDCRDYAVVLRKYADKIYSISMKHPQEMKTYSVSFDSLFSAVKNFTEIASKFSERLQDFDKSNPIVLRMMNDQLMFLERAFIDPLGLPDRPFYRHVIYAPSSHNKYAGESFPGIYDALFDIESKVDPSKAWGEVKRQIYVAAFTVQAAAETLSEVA

Molecular target: T1, purified PSMA (Homo sapiens, UniProt Q04609)
T1 construct: against purified PSMA from LNCaP cells by our published method; endogenous in cells; host or cells: LNCaP cells
Test: PMSA Inhibition Assay (HPLC, PAB-Glu-γ-Glu substrate)
Format: biochemical
Conditions: purified PSMA from LNCaP cells
Procedure: Adapted from, Maung, J.; Mallari, J. P.; Girtsman, T. A.; Wu, L. Y.; Rowley, J. A.; Santiago, N. M.; Brunelle, A.; Berkman, C. E. Probing for a Hydrophobic a Binding Register in Prostate-Specific Membrane Antigen with Phenylalkylphosphonamidates. […] Med. Chem. 2004, 12, 4969.
Working solutions of the substrate (N-[4-(phenylazo)benzoyl]-glutamyl-g-glutamic acid, PAB-Glu-γ-Glu) and all inhibitors were made in TRIS buffer (50 mM, pH 7.4). Working solutions of purified PSMA were appropriately diluted in TRIS buffer (50 mM, pH 7.4) to provide from 15% to 20% conversion of substrate to product in the absence of inhibitor. A typical incubation mixture (final volume 250 μL) was prepared by the addition of either 25 μL of an inhibitor solution or 25 μL TRIS buffer (50 mM, pH 7.4) to 175 μL TRIS buffer (50 mM, pH 7.4) in a test tube. A volume of the 25 μL PAB-Glu-γ-Glu (100 μM) was added to the above solution. […] An 85 μL aliquot of the resulting supernatant was subsequently quantified by HPLC. IC50 values were calculated using KaleidaGraph 3.6 (Synergy Software).
PABGγG and its hydrolytic product (PABG) were separated and quantified using an analytical reversed-phase HPLC column (Lichrosphere C18 5 μm, 150×4.6 mm; Phenomenex, Torrence, Calif.) with a mobile phase consisting of ACN/potassium phosphate [25 mM, pH 2.0 (adjusted with H3PO4)] at a respective volume ratio of 40:60.

For `O=C(O)CCC(CP(=O)(O)O)C(=O)O` (stereo not shown) [Compound 2-PMPA, 2-PMPA, reference compound], the “inhibitory potency / affinity for PSMA (in words)” value was “superior inhibitory potency”.
